Here are results for 79 compounds from published antibiotic growth screens (doi:10.1038/s41589-023-01349-8).

Molecules are shown by their SMILES. The list shows a part of the results.

For the test, the system named is A. baumannii ATCC 17978. The test can be described thus: relative growth (fraction of control); higher = less inhibition. As to conditions: 50 µM.
In turn, `CC12CC3(C)CC(C)(C1)CC(C/N=C/c1ccc(O)cc1)(C2)C3` showed a relative growth of 1.03.
Consider `O=C(C[C@@H]1C=C[C@@H](NC(=O)c2ccc(F)cc2)[C@H](CO)O1)NCc1ccncn1`, for which the relative growth was 0.897.
In turn, `NC[C@H]1O[C@H](OC2[C@@H](N)C[C@@H](N)[C@H](O[C@H]3O[C@H](CO)[C@@H](O)[C@H](N)[C@H]3O)[C@H]2O)[C@H](O)[C@@H](O)[C@@H]1O.O=S(=O)(O)O` (some centres undefined) displayed a relative growth of 0.338.
`COC(=O)c1cnn2c(=O)c3c([nH]c12)CCC3` yielded a relative growth of 1.07.
The figure for `CCCC(=O)Nc1ccc2c(c1)C(=O)N(C)C[C@H](OC)[C@H](C)CN(Cc1ccc(-c3ccccn3)cc1)[C@H](C)CO2` is 1.02; for `COc1ccccc1N=C(NO)c1nonc1N` it is 1.03; for `CCCNC(=O)Nc1ccc2c(c1)C(=O)N(C)C[C@H](OC)[C@@H](C)CN(C(=O)C1CCOCC1)[C@@H](C)CO2` it is 0.951.
The figure for `Cc1cc(C)c2ccc(Cl)nc2n1` is 1.01; for `S=C=Nc1ccc(N=C=S)cc1` it is 0.858; for `O=C(O)COc1nn(Cc2ccccc2)c2ccccc12` it is 0.937.
The figure for `COCC(=O)Nc1ccc2c(c1)C(=O)N(C)C[C@H](OC)[C@H](C)CN(Cc1ccccc1F)[C@@H](C)CO2` is 1.17; for `N=C(N)NCCN1CCCCCCC1.O=S(=O)(O)O` it is 1.07; for `CCC(C)C(N)C1=NC(C(=O)NC(CC(C)C)C(=O)NC(CCC(=O)O)C(=O)NC(C(=O)NCCCCC2NC(=O)C(CC(N)=O)NC(=O)C(CC(=O)O)NC(=O)C(Cc3c[nH]cn3)NC(=O)C(Cc3ccccc3)NC(=O)C(C(C)CC)NC(=O)C(CCCN)NC2=O)C(C)CC)CS1` (centres undefined) it is 0.986.
The compound `CCCC#Cc1ccc2c(c1)O[C@H](CN(C)Cc1ccc3c(c1)OCO3)[C@H](C)CN([C@H](C)CO)S2(=O)=O` returned a relative growth of 0.894.
Regarding `COCC#Cc1cnc2c(c1)C(=O)N([C@@H](C)CO)C[C@H](C)[C@@H](CN(C)C(=O)Nc1ccccc1OC)O2`, the relative growth was 1.1.
`CNc1nc(SCC(N)=O)nc(N2CCOCC2)n1` registered a relative growth of 1.01.
Turning to `Cc1cc(C)c(NC(=O)[C@@H](N)Cc2ccccc2)c(Cl)c1`, the relative growth is 1.09.
For `C#Cc1ccc(C(=O)NO)s1`, the relative growth stood at 0.871.
With `COc1cc(C(=O)N2CCOCC2)cc(OC)c1OC`, the relative growth worked out at 1.26.
`C#C[C@]1(O)CCC2[C@@H]3CCC4=CCCC[C@@H]4C3C(=C)C[C@@]21CC` (some centres undefined) came in with a relative growth of 1.02.
`COCCOC(=O)N1C(=O)[C@@]2(c3cc(C#CC4(O)CCCCCC4)ccc31)[C@H](c1ccccc1OCCO)N1[C@H](c3ccccc3)[C@H](c3ccccc3)OC(=O)[C@H]1[C@@H]2C(=O)N1CCc2cc(OC)c(OC)cc2C1`: the relative growth was 1.02.
In turn, `Cc1cc(C(=O)O)c(C#N)c(N)n1` had a relative growth of 1.
The compound `CC(C)(C)c1cc(C(=O)NN)no1` showed a relative growth of 1.22.
`O=C(C[C@@H]1CC[C@H]2[C@@H](COC[C@@H](O)CN2C(=O)Nc2ccc(F)cc2)O1)NCCCN1CCOCC1` gave a relative growth of 1.01.
Compound `COc1cc(O)c(C(C)=O)c(OC)c1` registered a relative growth of 1.13.
In turn, `C#CCN(C)CCCOc1ccc(Cl)cc1Cl.Cl` yielded a relative growth of 0.858.
For the compound `Cc1ccc(S(=O)(=O)N2C[C@@H](O)COC[C@H]3O[C@H](CC(=O)N[C@H]4CCN(Cc5ccccc5)C4)CC[C@@H]32)cc1`, the relative growth amounted to 1.06.
Next, `COc1cccc(S(=O)(=O)N(C)C[C@@H]2Oc3cc(C#CCN(C)C)ccc3S(=O)(=O)N([C@H](C)CO)C[C@@H]2C)c1`: 1.06; `COC(=O)C(CC#Cc1ccc2c(c1)[C@]1(C(=O)N2)[C@H](C(=O)N2CCc3cc(OC)c(OC)cc3C2)[C@H]2C(=O)O[C@H](c3ccccc3)[C@H](c3ccccc3)N2[C@@H]1c1ccc(O)cc1)C(=O)OC`: 0.827.
In turn, `Cn1c(CC#N)n[nH]c1=S` returned a relative growth of 1.03.
Compound `COc1ccccc1CN1C(=O)c2ccccc2[C@](Cc2ccccc2I)(C(=O)NCCCN(C)C)[C@@H]1c1ccc(CO)cc1` came in with a relative growth of 0.955.
The figure for `CO/N=C(/C(=O)N[C@@H]1C(=O)N2C(C(=O)[O-])=C(COC(C)=O)CS[C@H]12)c1csc(N)n1.[Na+]` is 0.161.
Consider `O=C1c2c(O)cc(CO)cc2[C@H](O[C@@H]2O[C@H](CO)[C@@H](O)[C@H](O)[C@H]2O)c2cccc(O[C@@H]3O[C@H](CO)[C@@H](O)[C@H](O)[C@H]3O)c21` [CASANTHRANOL [cascaroside A shown]], for which the relative growth amounted to 0.93.
Take `CCNC(=O)C[C@@H]1CC[C@H](NC(=O)C2CC2)[C@@H](CO)O1`: the relative growth was found to be 0.999.
Take `NC(=O)C1N=CN([C@@H]2O[C@H](CO)[C@@H](O)[C@H]2O)C1=O` (some centres undefined): the relative growth amounted to 0.995.
The compound `CSC1=NN(C)c2cnn(C)c(=O)c2S1` yielded a relative growth of 1.
The figure for `CC(C)(C)NCCCCOc1ccc(Cl)cc1C(C)(C)C` is 0.689; for `CC(=O)O[C@H]1C[C@@H](OC(C)=O)C(C)(C)C2C[C@@H](OC(C)=O)[C@]3(C)C(CC[C@@]4(C)[C@H](c5ccoc5)OC(=O)[C@H]5O[C@]543)[C@]21C` (some centres undefined) it is 1.72; for `CN1CCN(C(=O)C[C@@H]2CC[C@H]3[C@@H](COC[C@@H](O)CN3S(=O)(=O)c3cccc(F)c3)O2)CC1` it is 1.08.
`O=C(C[C@@H]1C[C@H]2c3cc(NS(=O)(=O)c4ccccc4)ccc3O[C@H]2[C@H](CO)O1)NCC(F)(F)F` registered a relative growth of 1.06.
`COCCNC(=O)C[C@H]1C[C@@H]2c3cc(NS(C)(=O)=O)ccc3O[C@@H]2[C@H](CO)O1` yielded a relative growth of 0.991.
On to `Nc1ccc(S(=O)(=O)Nc2ccc(Cl)nn2)cc1`, for which the relative growth came to 0.982.
Regarding `CCC(=O)N1CCN=C1SC`, the relative growth amounted to 0.884.
In turn, `C[C@H]1CN([C@@H](C)CO)C(=O)CCCn2cc(nn2)CO[C@@H]1CN(C)C(=O)Nc1cccc2ccccc12` came in with a relative growth of 1.14.
As for `COCC#Cc1ccc2c(c1)O[C@@H](CN(C)S(=O)(=O)c1ccc(F)cc1)[C@@H](C)CN([C@H](C)CO)S2(=O)=O`, the relative growth is 1.04.
As to `N#CCCS(=O)(=O)c1ccc(N)cc1`, the relative growth was determined as 1.08.
The figure for `Cc1cc(/C=C/c2ccc3cc(N(C)C)ccc3[n+]2C)c(C)n1-c1ccccc1.O=C([O-])c1cc2ccccc2c(Cc2c(O)c(C(=O)O)cc3ccccc23)c1O` is 2.46; for `O=C1c2c(O[C@@H]3O[C@H](CO)[C@@H](O)[C@H](O)[C@H]3O)cc(O)cc2O[C@@]1(O)Cc1ccc(O)cc1` it is 1.05.
`COC(=O)c1ccccc1N(C)S(C)(=O)=O` displayed a relative growth of 0.905.
The compound `COc1cccc(S(=O)(=O)N2C[C@H](O)COC[C@H]3O[C@@H](CC(=O)N4CCN(C)CC4)CC[C@@H]32)c1` showed a relative growth of 0.967.
The compound `COc1ccc(NC(=O)N2C[C@@H](O)COC[C@@H]3O[C@@H](CC(=O)NCc4ccccc4OC)CC[C@H]32)cc1` registered a relative growth of 1.1.
The figure for `C[C@H]1CN([C@@H](C)CO)C(=O)CCCn2cc(nn2)CO[C@@H]1CN(C)C(=O)c1ccc(N2CCN(C)CC2)cc1` is 0.885; for `CCOC(=O)c1cccnc1N` it is 1.03; for `C=CCOC(=O)[C@H]1[C@@H]2C(=O)O[C@@H](c3ccccc3)[C@@H](c3ccccc3)N2[C@@H](c2ccc(OCCOC(=O)[C@@H]3C[C@@H]4C(=O)N[C@@H](CCCCNC(C)=O)C(=O)N4[C@@H]3c3ccc(O)cc3)cc2)[C@]12C(=O)Nc1ccccc12` it is 1.52.
Compound `COC1=C(O)C(=O)c2c(cc3oc(C(C)=O)c(O)c3c2O)C1=O` came in with a relative growth of 0.976.
Compound `CN(C)C(=O)C[C@H]1CC[C@H](NC(=O)C2CC2)[C@H](CO)O1` came in with a relative growth of 1.22.
`O=C(N/N=C/[C@H](O)[C@@H](O)[C@@H](O)[C@H](O)C(=O)O)c1ccccc1O` registered a relative growth of 0.893.
Next, `Oc1ccc(O)cc1`: 0.918; `COc1cccc(S(=O)(=O)N[C@H]2CC[C@@H](CCn3cc(-c4ccccc4OC)nn3)O[C@@H]2CO)c1`: 0.921.
For the compound `C[C@H](O)C#Cc1ccc2c(c1)O[C@@H](CN(C)C(=O)Nc1ccccc1)[C@H](C)CN([C@@H](C)CO)S2(=O)=O`, the relative growth turned out to be 1.12.
`CC1=C2C(O)C(=O)OC3CC4C(C)(C)C(=O)C=C[C@]4(C)C(CC1)[C@]23C` (some centres undefined) registered a relative growth of 0.917.
`COCC#Cc1ccc2c(c1)O[C@H](CN(C)Cc1ccc(F)cc1)[C@H](C)CN([C@@H](C)CO)S2(=O)=O`: the relative growth was 0.945.
Consider `COC(=O)C1=C(C)NC(C)=C(C(=O)OC)C1`, for which the relative growth was 0.988.
`C[C@]12CCC(=O)C=C1C=CC1C2CC[C@@]2(C)C1CC[C@@]21CCC(=O)O1` (some centres undefined) registered a relative growth of 1.
In turn, `O.OC[C@H]1O[C@@H](O[C@H]2[C@H](O)[C@@H](O)[C@@H](O)O[C@@H]2CO)[C@H](O)[C@@H](O)[C@H]1O` gave a relative growth of 1.11.
For `CCCNC(=O)N1C[C@@H](O)COC[C@@H]2O[C@H](CC(=O)N3CCN(C)CC3)CC[C@H]21`, the relative growth turned out to be 1.1.
`CC1(O)CCOC(=O)C1` (centres undefined) displayed a relative growth of 1.18.
Regarding `CC1CCC(NC(=O)N(CCCl)N=O)CC1` (centres undefined), the relative growth stood at 1.04.
In the case of `CC(=O)OC1CC[C@@]2(C)C(CC[C@]3(C)C2CC[C@]24OC(=O)[C@@]5(CCC(C)C(C)C52)CC[C@]43C)C1(C)C` (some centres undefined), the relative growth was determined as 0.917.
`O=C(CN1CCOCC1)NCC[C@@H]1CC[C@@H](NC(=O)c2ccccc2F)[C@@H](CO)O1` showed a relative growth of 1.01.
Next, `CCNC(=O)C[C@@H]1CC[C@H](NC(=O)C2CCOCC2)[C@@H](CO)O1`: 0.827.
Regarding `O=C(C[C@@H]1C=C[C@@H](NC(=O)c2ccc3c(c2)OCO3)[C@H](CO)O1)NCc1ccc(Oc2ccccc2)cc1`, the relative growth was 1.07.
Compound `CC(C)C(=O)NCc1nnnn1-c1ccccc1` came in with a relative growth of 0.939.
`CCCNC(=O)COc1cccc([C@@H](CCc2ccc(OC)c(OC)c2)OC(=O)[C@@H]2CCCCN2C(=O)C(=O)C(C)(C)CC)c1` returned a relative growth of 1.01.
On to `CCC(c1ccc(O)cc1)C(CC)c1ccc(O)cc1` (centres undefined), for which the relative growth turned out to be 0.839.
Next, `O=C(CN1C(=O)CSC1=O)N1CCCC1`: 0.963; `C[C@@H]1CN([C@H](C)CO)S(=O)(=O)c2ccc(-c3cccnc3)cc2O[C@H]1CN(C)C(=O)c1cccc(F)c1`: 1.22.
As for `COc1cccc(S(=O)(=O)Nc2ccc3c(c2)[C@@H]2C[C@@H](CC(=O)NCc4cccc(F)c4)O[C@@H](CO)[C@@H]2O3)c1`, the relative growth is 1.07.
Next, `C[C@H]1CN([C@@H](C)CO)S(=O)(=O)c2ccc(C#CC3CC3)cc2O[C@@H]1CN(C)C(=O)c1cccc(F)c1`: 0.946.
